Assay results reported in ChEMBL document CHEMBL1126778, “Adenosine A1 antagonists. 3. Structure-activity relationships on amelioration against scopolamine- or N6-((R)-phenylisopropyl)adenosine-induced cognitive disturbance” (J Med Chem, 1993).

Chains of the proteins cited; added tags and fusions are not shown.
UniProt P47745, whole entry: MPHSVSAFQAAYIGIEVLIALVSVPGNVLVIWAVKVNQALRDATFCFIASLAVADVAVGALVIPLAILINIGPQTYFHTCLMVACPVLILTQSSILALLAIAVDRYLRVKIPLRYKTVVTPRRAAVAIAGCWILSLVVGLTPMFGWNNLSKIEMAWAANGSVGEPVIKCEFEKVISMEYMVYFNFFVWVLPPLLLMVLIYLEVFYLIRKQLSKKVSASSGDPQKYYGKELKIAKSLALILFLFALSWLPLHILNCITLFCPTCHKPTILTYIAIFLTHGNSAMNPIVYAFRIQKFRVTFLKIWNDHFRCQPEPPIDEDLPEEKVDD

Biological target: Adenosine receptor A1 (Cavia porcellus, UniProt P47745)
Test: Binding affinity against Adenosine A1 receptor from guinea pig forebrain membranes by N6-[3H]- cyclohexyladenosine displacement.

Ki: 2.4 nM
Compound: CCCn1c(=O)c2nc(C34CC5CC(CC3C5)C4)[nH]c2n(CCc2ccc(N)cc2)c1=O
